How the values were obtained:
PTH2 receptor = PTH2 receptor (Homo sapiens, UniProt P49190); assay: cAMP accumulation in COS-7 cells transiently expressing the human PTH2 receptor; format: cell-based; set-up: expressed in transfected cells; host or cells: COS-7 (transient); conditions: activation of adenylyl cyclase
rat PTH2 receptor = molecular target: T1, rat PTH2 receptor (Rattus norvegicus, UniProt P70555); assay: cAMP accumulation in COS-7 cells transiently expressing the rat PTH2 receptor; format: cell-based; conditions: activation of adenylyl cyclase, figures in brackets
T1 construct: expressed in transfected cells; host or cells: COS-7 (transient)

Amino acid sequences for entries named in this document (tags omitted). Residues count along the entry.
UniProt P49190, 25-550: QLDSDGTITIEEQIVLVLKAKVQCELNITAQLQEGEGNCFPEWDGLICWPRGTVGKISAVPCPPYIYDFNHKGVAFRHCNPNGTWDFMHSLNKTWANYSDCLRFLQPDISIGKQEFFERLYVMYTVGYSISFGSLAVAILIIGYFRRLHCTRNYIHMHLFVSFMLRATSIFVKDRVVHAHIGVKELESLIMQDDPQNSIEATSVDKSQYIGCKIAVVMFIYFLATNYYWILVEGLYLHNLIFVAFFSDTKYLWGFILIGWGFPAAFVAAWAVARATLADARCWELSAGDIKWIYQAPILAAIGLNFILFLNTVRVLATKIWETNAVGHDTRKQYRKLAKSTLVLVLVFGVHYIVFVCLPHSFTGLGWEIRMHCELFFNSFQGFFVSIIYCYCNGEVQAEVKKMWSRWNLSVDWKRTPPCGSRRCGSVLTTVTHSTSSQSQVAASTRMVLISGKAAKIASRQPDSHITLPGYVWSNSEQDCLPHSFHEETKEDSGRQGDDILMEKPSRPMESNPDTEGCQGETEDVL
UniProt P70555, 25-546: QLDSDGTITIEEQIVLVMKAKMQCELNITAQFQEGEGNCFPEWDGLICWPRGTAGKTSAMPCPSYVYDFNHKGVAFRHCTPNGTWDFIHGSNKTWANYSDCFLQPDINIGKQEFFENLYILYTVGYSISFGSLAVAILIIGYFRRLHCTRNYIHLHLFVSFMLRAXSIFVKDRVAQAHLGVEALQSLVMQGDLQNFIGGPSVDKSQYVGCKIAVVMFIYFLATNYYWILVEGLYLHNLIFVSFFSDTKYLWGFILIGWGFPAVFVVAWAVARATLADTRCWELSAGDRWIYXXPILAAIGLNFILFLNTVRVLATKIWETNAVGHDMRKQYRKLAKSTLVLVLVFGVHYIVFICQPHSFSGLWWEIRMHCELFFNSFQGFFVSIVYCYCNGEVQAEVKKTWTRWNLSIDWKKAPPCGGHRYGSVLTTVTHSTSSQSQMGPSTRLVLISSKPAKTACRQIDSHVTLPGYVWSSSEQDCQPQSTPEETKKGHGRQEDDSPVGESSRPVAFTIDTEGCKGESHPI

Substance	−logEC50 (PTH2 receptor; mean ± s.e.m. of three or four experiments)	EC50 (rat PTH2 receptor) [nM]	EC50 (PTH2 receptor; figures in brackets) [nM]
hPTH(1-34)	8.95 ± 0.09	140	
hPTH(1-84)			5.5

From US7122624B2, “Parathyroid hormone receptor ligands” (The United States of America as represented by the …, priority 1999, dated 2006)
